Data as given in patent US20080026998 (published 2008).

Target: BPTI (aprotinin) (bovine, UniProt P00974)

binding result: no binding
B1: factor VIIa-tissue factor (protein)
chain 1: ANAFLEELRPGSLERECKEEQCSFEEAREIFKDAERTKLFWISYSDGDQCASSPCQNGGSCKDQLQSYICFCLPAFEGRNCETHKDDQLICVNENGGCEQYCSDHTGTKRSCRCHEGYSLLADGVSCTPTVEYPCGKIPILEKRNASKPQGRIVGGKVCPKGECPWQVLLLVNGAQLCGGTLINTIWVVSAAHCFDKIKNWRNLIAVLGEHDLSEHDGDEQSRRVAQVIIPSTYVPGTTNHDIALLRLHQPVVLTDHVVPLCLPERTFSERTLAFVRFSLVSGWGQLLDRGATALELMVLNVPRLMTQDCLQQSRKVGDSPNITEYMFCAGYSDGSKDSCKGDSGGPHATHYRGTWYLTGIVSWGQGCATVGHFGVYTRVSQYIEWLQKLMRSEPRPGVLLRAPFP
chain 2: SGTTNTVAAYNLTWKSTNFKTILEWEPKPVNQVYTVQISTKSGDWKSKCFYTTDTECDLTDEIVKDVKQTYLARVFSYPAGNVESTGSAGEPLYENSPEFTPYLETNLGQPTIQSFEQVGTKVNVTVEDERTLVRRNNTFLSLRDVFGKDLIYTLYYWKSSSSGKKTAKTNTNEFLIDVDKGENYCFSVQAVIPSRTVNRKSTDSPVECMGQEKGEFRE
